Data published in patent US20210269549A1, “ANTI-SAS1B ANTIBODIES, ASSOCIATED METHODS OF USE, AND COMPOSITIONS AND METHODS FOR DETECTING AND TREATING CANCER” (UNIVERSITY OF VIRGINIA PATENT FOUNDATION, priority 2015, published 2021).

Assays:
Assay type in all cases: cell-based
[1] = test system: M1 (renal cancer cell line); experiment: Live cell surface indirect immunofluorescence, M1; conditions: live cells on ice; two cancer cell lines (M1, MMMT539)
Protocol: Anti-Human SAS1B mouse monoclonal antibodies reactive to SAS1B epitope on live cancer cell surfaces were identified by indirect immuno-fluorescence (IF) for the development of therapeutic antibodies. M1 (renal cancer cell line) and MMMT539 (uterine cancer cell line) cells were seeded at 20,000 cells in 1 ml per well on collagen coated coverslips in 24 well plates. The media was replaced 22 h post seeding. For antibody probing, cells were kept on ice for ˜8 to 18 min following 47 h post-seeding. The first antibody was added at 10 ug/ml, 20 ug/ml or 50 ug/ml in complete culture media with 15 mM NaN3 (pre-chilled), incubated on ice for 60 min, and the cells washed in complete culture media with 15 mM NaN3 in cold 1 ml, ×3. The second antibody, goat-antimouse-AF488 (pre-chilled), was added to the wells at 5 ug/ml in complete culture media with 15 mM NaN3 for 60 min on ice. The cells were washed in complete media with 15 mM NaN3, 1 ml, ×3 on ice. The cells were fixed in 4% PFA in PBS for 20 minutes on ice. The cells were washed in distilled water at RT, 1 ml, ×1 and mounted in 8 ul of SLOWFADE® Diamond Antifade Mountant with DAPI. An anti-EGFR monoclonal antibody was used as a positive control on live M1 cells. Epidermal growth factor receptor (EGFR) is a transmembrane glycoprotein and member of protein kinase superfamily. […]

[2] = test system: human uterine cancer cells (MMMT539); experiment: Antibody drug conjugate cytotoxicity (ADC) assay, MMMT539; conditions: FIG. 3A-B
Protocol: The cytotoxic effect of anti-human SAS1B mAbs SB2 and SB5 on human uterine cancer cells (MMMT539) was examined by antibody drug conjugate cytotoxicity (ADC) assay. Human uterine cancer cells MMMT539 were seeded in triplicate on 96 well plate overnight and then treated with SB2 or SB5 and anti-mouse Fab-cleavable-Duocarmycin complex for ˜90 h. The presence of viable live cells per well was measured by total cellular ATP content in relative luminescence unit (RLU). Viability of control live cells (100%) was determined from average of 9 wells in terms of total cellular ATP (in RLU) containing the constant 15 nM Fab-CL-DMDM for each set of antibody/reagent. […] Staurosporine, a general protein kinase inhibitor, was used to induce apoptosis in 1% DMSO as a positive control for the assay.

[3] = test system: renal carcinoma cells; experiment: ADC assay on renal carcinoma cells; conditions: 0.01 nM mAb, 15 nM Fab-DMDM, 4 days
Protocol: The cytotoxic effect of anti-EGFR (AY13), anti-SAS1B (SB2) and anti-CABYR (3A4) monoclonal antibodies on renal carcinoma cells were tested by ADC assay. An average of 3 experiments in triplicate is reported.

[4] = test system: renal cell carcinoma cell line (M1); experiment: Morphology of renal cell carcinoma cell line (M1) after 93 h of antibody drug treatment
Protocol: The morphology of renal cell carcinoma cell line (M1) after 93 h of anti-EGFR antibody drug treatment was examined.

Substance: anti-EGFR mAb: anti-EGFR (AY13) monoclonal antibody used as a positive control [reference compound]
- Surface labelling of live cancer cells [1]: confirmed the EGFR expression on the cell surface
- Cell killing [2]: killed the cancer cells in a dose dependent manner
- Viability [3]: 20%
- Cell killing and inhibition of cell proliferation (morphology) ([4]; 0.1 nM mAb with 15 nM Fab-DMDM): the numbers of unrounded live cells were very few
- Cell killing and inhibition of cell proliferation (morphology) ([4]; 1 nM mAb with 15 nM Fab-DMDM): clear cell killing and inhibition of cell proliferation properties
